From ChEMBL document CHEMBL1629445, “Synthesis and evaluation of azetidinone analogues of combretastatin A-4 as tubulin targeting agents” (J Med Chem, 2010)

Species on record: Bos taurus
Assay: Inhibition of bovine tubulin polymerization assessed as fold reduction Vmax of polymerization at 10 uM by spectrophotometry relative to untreated control

| SMILES | fold change (FC) |
| --- | --- |
| COc1ccc(/C=C\c2cc(OC)c(OC)c(OC)c2)cc1O [COMBRETASTATIN A4] | 6 |
| COc1ccc([C@@H]2[C@@H](c3ccc(O)cc3)C(=O)N2c2cc(OC)c(OC)c(OC)c2)cc1O | 11.8 |
| COc1ccc([C@@H]2[C@@H](c3ccccc3)C(=O)N2c2cc(OC)c(OC)c(OC)c2)cc1 | 6.1 |
| COc1ccc([C@@H]2[C@@H](c3ccccc3)C(=O)N2c2cc(OC)c(OC)c(OC)c2)cc1O | 8.3 |
